# Antibody variant affinities, Ab-91 heavy chain, assay 2

The measurements come from Engelhart et al. 2022 (doi:10.1038/s41597-022-01779-4) through the FLAb antibody collection.

Antigen: PDVDLGDISGINAS, a 14-residue peptide of the SARS-CoV-2 spike HR2 region.

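The parent was found by panning a naive human phage display library on the peptide. Library AAYL51 holds single substitutions and randomly drawn double and triple substitutions in the CDRs. Affinity was read by AlphaSeq, a pooled yeast mating assay with surface-displayed partners. Pairs that bind mate more often; barcode pairs of the diploids are counted by sequencing. Each replicate has its own calibration line, from reference interactions of the BCL2 family. The assay was run in three technical replicates.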

The variants keep the light chain, the linker and the frameworks of Ab-91 (scFv order VL, three GGGGS repeats, VH).
VL: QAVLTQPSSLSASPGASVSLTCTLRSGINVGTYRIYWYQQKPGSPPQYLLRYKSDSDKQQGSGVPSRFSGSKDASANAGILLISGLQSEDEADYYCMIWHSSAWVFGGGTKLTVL
VH: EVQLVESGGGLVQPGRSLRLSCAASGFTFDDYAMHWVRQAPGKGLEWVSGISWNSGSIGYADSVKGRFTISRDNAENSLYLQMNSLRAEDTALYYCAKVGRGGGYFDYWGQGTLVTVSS

Substitutions are numbered in sequence along the VH above, starting at 1 (not Kabat).
Numbers give log10(Kd / nM), so 0 is 1 nM and 3 is 1 µM. Smaller is tighter.
The mean shown is taken over the replicates in which the pair was detected.
A pair that was not seen in any replicate is written "no signal"; this usually means weak binding, but a binder can also be missed.
For reference, the parent read 1.86 as the reference entry and 0.88 as a member of this library.
Three control strains display no target. For library AAYL51, 21% of the pairings with them gave a signal, with a median of 4.54 and one signal in twenty below 3.26, so weak values seen in few replicates may be background. Also given: how often the same scFv was detected with the empty control strains.

| log10 Kd (nM), mean | detected | empty controls | changes |
|---|---|---|---|
| no signal | 0/3 | 0/9 | W53G/K65L/Y105W |
| 4.93 | 2/3 | 7/9 | F27C/K65Q/G102V |
| no signal | 0/3 | 0/9 | I58M/R101W/Y108M |
| 1.57 | 3/3 | 5/9 | F29A/N54D/S55R |
| no signal | 0/3 | 3/9 | F29Q/S57E/I58M |
| 4.08 | 1/3 | 1/9 | I51C/G56S/D62R |
| no signal | 0/3 | 0/9 | F27C/G102M/Y108D |
| 4.97 | 1/3 | 4/9 | A61Y/S63R/K65P |
| 1.04 | 3/3 | 0/9 | S63F/V64C/K65Q |
| no signal | 0/3 | 0/9 | D62V/R101Y/G104V |
| 5.36 | 1/3 | 1/9 | I51G/G100I/D107H |
| 5.58 | 1/3 | 7/9 | S57R/R101G/Y108N |
| no signal | 0/3 | 0/9 | H35G/I58E/A61Y |
| no signal | 0/3 | 0/9 | Y32C/H35K/N54E |
| 4.20 | 2/3 | 5/9 | S57H/V99I |
| no signal | 0/3 | 0/9 | F29N/A33Y/Y108K |
| 5.61 | 1/3 | 3/9 | F27C/G104P/D107G |
| no signal | 0/3 | 1/9 | F29C/N54F |
| 3.97 | 1/3 | 4/9 | W53P/G104F |
| no signal | 0/3 | 0/9 | D30E/A61C/D62M |
| 4.06 | 2/3 | 0/9 | Y32C/S52V/S63R |
| no signal | 0/3 | 0/9 | G50E/G104V |
| no signal | 0/3 | 3/9 | F27E/A33W/G56M |
| 1.36 | 3/3 | 6/9 | D31C/N54S/Y108A |
| no signal | 0/3 | 1/9 | F27Y/D62S/K65C |
| 5.43 | 1/3 | 1/9 | D30M/S52L/G59Y |
| no signal | 0/3 | 1/9 | T28I/G50L/Y108F |
| 4.65 | 2/3 | 6/9 | D31V/W53E/I58M |
| no signal | 0/3 | 5/9 | G26R/Y60G/R101W |
| no signal | 0/3 | 1/9 | W53Y/F106Y/D107G |
| 4.56 | 2/3 | 2/9 | Y32T/G102S/Y105F |
| 1.99 | 3/3 | 0/9 | Y32M/I58K/Y108C |
| no signal | 0/3 | 0/9 | F29M/S57L/Y60W |
| no signal | 0/3 | 0/9 | G56H/V99T/R101L |
| no signal | 0/3 | 1/9 | Y32V/V64A/Y108F |
| 3.44 | 3/3 | 7/9 | T28K/S63W/Y105K |
| 4.55 | 1/3 | 0/9 | T28P/S52H/G103R |
| 4.49 | 1/3 | 1/9 | G26N/S52Y |
| 1.47 | 3/3 | 0/9 | S63E/V64L/Y108M |
| no signal | 0/3 | 1/9 | F27Q/S55D/G103C |
| 5.23 | 3/3 | 7/9 | G102I/G103R |
| 2.24 | 1/3 | 1/9 | W53N/G56I/G102N |
| 4.68 | 1/3 | 1/9 | F29C/S57M/I58F |
| 3.78 | 1/3 | 1/9 | D30Y/M34S/G100L |
| no signal | 0/3 | 0/9 | F27L/G103P |
| 4.17 | 1/3 | 0/9 | G26P/S63M/Y108E |
| 3.92 | 3/3 | 4/9 | K65G/Y105K |
| 3.87 | 3/3 | 9/9 | D31K/Y32N/S55M |
| no signal | 0/3 | 0/9 | T28R/I58N/G103I |
| 4.72 | 1/3 | 0/9 | G26T/T28C/F106A |
| 3.84 | 1/3 | 4/9 | D31K/D62C |
| no signal | 0/3 | 1/9 | G26A/G59W |
| 4.22 | 2/3 | 2/9 | F27G/D30S/S55I |
| 4.15 | 3/3 | 5/9 | W53M/S55W/I58M |
| 6.21 | 1/3 | 4/9 | H35V/N54L/S63K |
| 2.96 | 3/3 | 3/9 | D30N/H35A/A61K |
| 4.71 | 1/3 | 2/9 | Y32R/M34W/D62S |
| 4.92 | 3/3 | 6/9 | Y32E/G56S/V99P |
| no signal | 0/3 | 0/9 | W53N/I58L/V99S |
| 3.49 | 2/3 | 0/9 | T28M/Y32C/D62T |
| no signal | 0/3 | 0/9 | V64K/G102R/G103N |
| no signal | 0/3 | 0/9 | Y32A/K65I |
| 2.30 | 3/3 | 1/9 | F29D/Y105S |
| 0.58 | 3/3 | 0/9 | G103H/F106L/D107H |
| 2.68 | 3/3 | 4/9 | N54G/I58E/G100P |
| 5.26 | 2/3 | 7/9 | H35Q/V99K/F106E |
| 5.18 | 3/3 | 7/9 | H35N/Y60A |
| no signal | 0/3 | 1/9 | I51A/D62N/G102A |
| 4.64 | 1/3 | 2/9 | S52W/G103L/Y108F |
| no signal | 0/3 | 0/9 | F29P/S57C/I58S |
| 4.37 | 1/3 | 2/9 | D30E/S57R/F106S |
| 5.55 | 1/3 | 4/9 | G26C/K65Y/R101N |
| 5.40 | 1/3 | 4/9 | F27M/G50S |

The opening 5 entries, copied out:

changes	log10 Kd (nM), mean	detected	empty controls
W53G/K65L/Y105W	no signal	0/3	0/9
F27C/K65Q/G102V	4.93	2/3	7/9
I58M/R101W/Y108M	no signal	0/3	0/9
F29A/N54D/S55R	1.57	3/3	5/9
F29Q/S57E/I58M	no signal	0/3	3/9